This is a selection; strong and weak results do not stand in their true shares. Active and inactive are the calls of the source.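 The calls were made as follows: active = a full or partial loss of lipid-probe fluorescence in the fish gall bladder, intestine or both, judged by eye; inactive = no fluorescence loss, or compound toxic to the fish.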
Test: inhibitors of larval lipid processing in zebrafish, primary screen, whole organism, PED6 fluorescence, gall bladder and intestine (AID 686);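 also: larvae 5 to 7 days old with five fish per well; signal comes from phospholipase A2 cleavage of quenched PED6 carried via bile; overnight exposure to compound and PED6 before scoring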
Settings: Zebrafish larvae PED6 lipid processing, fluorescence scoring; screened at 20 µM (by protocol)
Procedure, shortened: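 Also added: quenched phospholipase substrate PED6, 100 nM final, ingested by larvae; System: zebrafish larvae, 5-7 d; Quantity: 5 larvae per well; Compound: 20 µM single dose; Schedule: overnight compound and PED6 incubation; Read-out: visual per-well fluorescence inhibition score; Measured by: By-eye fluorescence microscopy; Medium: E3.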
With `Cc1cccc(OCC(=O)OC2CN3CCC2CC3)c1` (configuration not stated) the outcome was “inactive”.
With `Cc1ccc(OCC(=O)OC2CN3CCC2CC3)cc1` (configuration not stated) the outcome was “inactive”.

Source: PubChem BioAssay AID686 (PCMD, 2007)
